The target in this assay is Tyrosine-protein kinase ABL1 (Homo sapiens) (UniProt P00519). In words: ABL1 kinase (ABL1-N-HiBiT) SDR gain of signal screen. The following applies: Purified ABL1-N-HiBiT enzyme, Nano-Glo HiBiT luminescence, 30 min compound incubation. The text has this: National Center for Advancing Translational Sciences (NCATS),
National Institute of Health (NIH), Maryland
Discovery and optimization of novel protein-binding ligands underlies many of the methods and applications of biology, drug discovery, clinical diagnostics, and environmental toxicology. Assays for detecting the interaction of, for example, a molecule with a macromolecular target also referred to here as the target of interest (TOI) is dependent on a compatible output technology. Depending on the nature and knowledge surrounding the TOI, whether a receptor, enzyme, regulatory subunit or scaffold, or a sequence-defined nucleic acid folded into a complex tertiary structure, assay strategies can vary widely.
Here we exploit ligand-biased changes in the structural dynamics of the target protein to control reporter alpha complementation allowing a non-competitive, non-functional, non-separation measure of ligand-target interaction. […]
SEQUENCE No. (e.g., 1, 2, 3, etc.); […] (e.g., C. elegans, Compounds, Incubation, Read, etc.); VALUE and DESCRIPTION. […]
6. […] (SDR assay) Luminescence measured using CCD-based camera (ViewLux) with settings as follows: Exposure, 1 sec; Gain, High; Speed, Slow; Binning, 2X. […]

Protein sequences, listed by entry. Tags and fused reporters are not part of them.
UniProt P00519, whole entry, looked up: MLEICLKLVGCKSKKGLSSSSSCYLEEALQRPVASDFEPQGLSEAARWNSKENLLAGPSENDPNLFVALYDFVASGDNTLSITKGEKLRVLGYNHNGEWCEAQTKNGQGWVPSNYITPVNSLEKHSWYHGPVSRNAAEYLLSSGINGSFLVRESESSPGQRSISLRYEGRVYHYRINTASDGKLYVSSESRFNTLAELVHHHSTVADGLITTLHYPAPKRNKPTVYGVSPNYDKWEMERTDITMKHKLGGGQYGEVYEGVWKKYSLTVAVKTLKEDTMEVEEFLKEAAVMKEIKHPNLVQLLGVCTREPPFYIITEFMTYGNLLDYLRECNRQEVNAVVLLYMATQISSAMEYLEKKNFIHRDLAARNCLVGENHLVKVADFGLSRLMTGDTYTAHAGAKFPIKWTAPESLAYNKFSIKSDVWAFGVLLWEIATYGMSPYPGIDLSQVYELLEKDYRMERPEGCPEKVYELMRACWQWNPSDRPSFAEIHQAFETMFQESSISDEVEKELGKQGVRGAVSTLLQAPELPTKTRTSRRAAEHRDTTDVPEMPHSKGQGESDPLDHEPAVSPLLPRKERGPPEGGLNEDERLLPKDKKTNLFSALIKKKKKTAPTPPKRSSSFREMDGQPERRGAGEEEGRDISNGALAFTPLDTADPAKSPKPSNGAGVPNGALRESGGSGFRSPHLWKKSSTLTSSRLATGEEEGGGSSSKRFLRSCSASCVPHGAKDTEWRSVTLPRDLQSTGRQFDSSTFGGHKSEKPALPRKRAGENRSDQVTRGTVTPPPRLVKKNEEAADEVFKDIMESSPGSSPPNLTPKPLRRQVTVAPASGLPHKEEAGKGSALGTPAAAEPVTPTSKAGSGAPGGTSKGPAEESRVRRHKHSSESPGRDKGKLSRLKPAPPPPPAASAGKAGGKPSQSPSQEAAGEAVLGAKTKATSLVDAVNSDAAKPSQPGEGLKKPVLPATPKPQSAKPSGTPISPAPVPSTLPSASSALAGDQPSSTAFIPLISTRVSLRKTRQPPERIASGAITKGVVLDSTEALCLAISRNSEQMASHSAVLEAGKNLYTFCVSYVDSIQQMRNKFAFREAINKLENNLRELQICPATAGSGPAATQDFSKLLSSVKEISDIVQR

Only a part is listed here, and it is no random draw. Inconclusive results are not listed. Activity calls are given as the source filed them. The call rests on the fitted dose curve.

`Cc1ccc(NC(=O)c2ccc(CN3CCN(C)CC3)cc2)cc1Nc1nc(-c2cccnc2)cs1`: the Potency was active: 807 nM.

Source of the values: PubChem BioAssay AID1963315 (National Center for Advancing Translational Sciences (NCATS), 2024).
